Reference: patent publication US20180008569A1, “PROSTAGLANDIN TRANSPORTER INHIBITORS FOR INHIBITING OVULATION” (TEL HASHOMER MEDICAL RESEARCH INFRASTRUCTURE AND SERVICES …, priority 2015, published 2018)

Experiments:
[1] = system: whole ovarian PGT transcripts; experiment: Whole ovarian PGT transcripts in PMSG-primed/hCG-triggered immature mouse superovulation model; format: in vivo
Procedure: FIG. 5A presents the regulation ovarian PGT expression in vivo. Pregnant mare serum gonadotropin (PMSG)-primed/hCG-triggered was applied to immature mouse superovulation model for 48 hours (FIG. 5A, t=0) which augmented the level of PGT in the ovaries, relative to control (FIG. 5A, saline) by 2.3 folds (p<0.02). Administration of hCG further augmented the whole ovarian PGT transcripts to a peak noted 9 hours later (5.8 fold, p<0.003).

[2] = Serum progesterone levels (corpus luteum function) in PMSG-primed/hCG-triggered mice; format: in vivo; details: 24 hours post-hCG injection
Procedure: In order to assess corpus luteum function, serum progesterone levels were measured in PMSG-primed/hCG-triggered mice in the absence or presence of DIDS.

PGT [3] = biological target: T1, PGT (Homo sapiens, UniProt Q92959); experiment: PGE2 concentration in media of MGCs by enzyme immunoassay (EIA); format: cell-based; details: hCG 1U/ml 24 hours, FSH-pretreated MGCs
Procedure: The concentration of PGE2 in the media was then measured by an enzyme immunoassay (EIA).

PGT transcripts in MGCs = experiment: PGT transcripts (qPCR) in cultured FSH-pretreated human mural granulosa cells; details: FSH-pretreated MGCs (48 hours), 24 hours
PGT [4] = biological target: T1, PGT; experiment: [3H]PGE2 influx into cultured MGCs; format: cell-based; details: hCG 1U/ml 24 hours, then 1.5 nM [3H]PGE2 for 60 minutes; after first 20 minutes
Procedure: To confirm the role of PGT in PGE2 uptake, complementary influx experiments were also carried out. Cultured FSH-pretreated MGCs (48 hours) were initially treated with or without hCG (1U/ml) for 24 hours (to induce PGT expression) and then re-incubated with 1.5 nM of [^3H]PGE2 for 60 minutes. Intracellular [^3H]PGE2 levels were measured at intervals over the 60 minutes incubation period.

Substance: human chorionic gonadotropin [hCG]
- whole ovarian PGT transcripts, peak ([1]; 9 hours after hCG administration): 5.8 fold
- whole ovarian PGT transcripts ([1]; 12 hours after hCG administration): back at baseline levels
- serum progesterone levels [2]: significantly increased
- increase in the concentration of PGE2 in conditioned media (PGT [3]): 2 fold
- induction of PGT transcripts (PGT transcripts in MGCs; hCG 1 U/ml): 34 fold
- induction of PGT transcripts (PGT transcripts in MGCs; hCG 10 U/ml): 46 fold
- intracellular [3H]PGE2 uptake (PGT [4]): continued [^3H]PGE2 influx was noted only in hCG-treated MGCs
